{"source": "patent US12708622B2", "about": "“Methods of treating cancer and inhibiting TYK2 and MEK” (Washington University, priority 2021, dated 2026)", "assay": "Mouse body weight and health in the MPNST tumor models", "assay_type": "in vivo, mice", "conditions": "JW23.3, WU-386 and JH-2-002 mouse models; daily treatment, three weeks", "procedure": ". […] After 7-10 days, mice were treated daily with 1.5 mg/kg deucravacitinib (Deucra, BMS-986165), 30 mg/kg mirdametinib (Mirda), the combination of drugs, or vehicle control for three weeks or until tumors reached the maximum allowed volume. Mouse body weight, an indicator of health, was measured 2-3 times per week."}
{"molecule": "[2H]C([2H])([2H])NC(=O)c1nnc(NC(=O)C2CC2)cc1Nc1cccc(-c2ncn(C)n2)c1OC", "note": "[deucravacitinib]", "values": [{"measurement": "mouse body weight / adverse health effects", "value": "did not significantly decrease mouse body weight"}]}
